Test results taken from patent publication EP0938471B1, “THE PREPARATION AND USE OF ORTHO-SULFONAMIDO ARYL HYDROXAMIC ACIDS AS MATRIX METALLOPROTEINASE AND TACE INHIBITORS” (priority 1996, dated 1998).

Experiments:
MMP-1 = molecular target: T1, MMP-1 (Homo sapiens, UniProt P03956); experiment: MMP-1 inhibition (thiopeptide or fluorescent peptide substrate assay); type: biochemical
T1 sequence (P03956 100-469): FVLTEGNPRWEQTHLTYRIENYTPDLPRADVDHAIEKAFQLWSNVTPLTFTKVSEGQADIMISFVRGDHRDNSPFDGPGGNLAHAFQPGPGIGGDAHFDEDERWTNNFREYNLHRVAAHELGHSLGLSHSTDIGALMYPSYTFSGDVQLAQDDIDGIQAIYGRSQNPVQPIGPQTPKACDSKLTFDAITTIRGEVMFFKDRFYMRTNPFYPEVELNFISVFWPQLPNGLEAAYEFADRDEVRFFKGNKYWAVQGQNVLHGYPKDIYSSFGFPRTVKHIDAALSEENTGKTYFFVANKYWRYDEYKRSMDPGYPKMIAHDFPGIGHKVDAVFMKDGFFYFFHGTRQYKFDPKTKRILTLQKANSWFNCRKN

MMP-13 = MMP-13 (Homo sapiens, UniProt P45452); experiment: MMP-13 inhibition (thiopeptide or fluorescent peptide substrate assay); type: biochemical

## COc1ccc(S(=O)(=O)N(Cc2ccccc2)c2c(C)cccc2C(=O)NO)cc1 [Example 28, 2-[Benzyl-(4-methoxy-benzenesulfonyl)-amino]-N-hydroxy-3-methyl-benzamide]
MMP-1
  IC50: 115 nM

## COc1ccc(S(=O)(=O)N(Cc2cccnc2)c2c(C)cccc2C(=O)NO)cc1 [Example 61, N-Hydroxy-2-[(4-methoxy-benzenesulfonyl)-pyridin-3-ylmethyl-amino]-3-methyl-benzamide]
MMP-13
  IC50: 33 nM
